## Apparent affinities of Ab-91 variants for a coronavirus HR2 peptide

The measurements come from Engelhart et al. 2022 (doi:10.1038/s41597-022-01779-4) through the FLAb antibody collection.

Antigen: PDVDLGDISGINAS, a 14-residue peptide of the SARS-CoV-2 spike HR2 region.

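The starting antibody came from a phage panning campaign against this peptide. Variants in AAYL51 differ from the parent at up to three CDR positions; double and triple changes were sampled at random. Affinity was read by AlphaSeq, a pooled yeast mating assay with surface-displayed partners. The frequency of each diploid, read from paired DNA barcodes, reflects how well the two displayed proteins bind. Scores were corrected for input abundance and mapped to Kd with protein pairs of known affinity run in the same pool. The assay was run in three technical replicates.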

Parent scFv Ab-91: VL joined to VH by a (GGGGS)3 linker. Changes lie in the heavy chain CDRs alone.
VL: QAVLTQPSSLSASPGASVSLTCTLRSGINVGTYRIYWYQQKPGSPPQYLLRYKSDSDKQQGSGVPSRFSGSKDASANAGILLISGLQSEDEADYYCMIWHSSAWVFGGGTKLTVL
VH: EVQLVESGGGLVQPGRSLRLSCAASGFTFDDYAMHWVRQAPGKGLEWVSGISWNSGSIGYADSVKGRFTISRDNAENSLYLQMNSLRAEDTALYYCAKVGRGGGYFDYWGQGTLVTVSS

The parent's heavy chain CDRs are GFTFDDYAMH, GISWNSGSIGYADSVK, VGRGGGYFDY; each variant's own CDRs replace them letter for letter. Each Kd is an estimate from the mating assay, the geometric mean of the replicates in which the pair was seen; lower is stronger. "nd" means that the variant was in the library but no mating with the target was seen in any replicate; the authors take this as a sign of poor binding, and no number exists. For reference, the parent read 72 nM as the reference entry and 7.5 nM as a member of this library.

With EFTFDDYAMH | GISWCSGSIGYADSCK | VGRGGGYFDY the result was nd (0 of 3 replicates).
With GFTRVDYAMH | GISWNSGSIGYAWSVK | VGRGGGYFDY the result was nd (0 of 3 replicates).
With GFTFDDYAMH | GISWSSGSLGYADSVK | VGRGGRYFDY the result was 20 µM (1 of 3 replicates).
With GFTFDDYAMH | GISWNSGSISYADSVK | VGTGGGYVDY the result was nd (0 of 3 replicates).
With GFTFDDYAMH | GISWVSGSIGYADSVI | VGRGGGYFEY the result was nd (0 of 3 replicates).
With GFTFDDYAML | GISWNSGSIGYADSVK | VGRGGGYFDD the result was 69 µM (3 of 3 replicates).
With GFTFDDYAMH | GISWNSGSIPYADSVK | VMRHGGYFDY the result was 800 µM (2 of 3 replicates).
With GGTFDDYAGH | GISWNSGSIGYADSVK | VGRYGGYFDY the result was 43 µM (1 of 3 replicates).
With GFTFDDAAMH | GISWNSGPISYADSVK | VGRGGGYFDY the result was 92 µM (1 of 3 replicates).
With GFTFDDYFMH | GISWNSGSIGYADSVK | VGRGGQYFDQ the result was nd (0 of 3 replicates).
With GFTFDDYAEH | GISWNSGSIGYADIVS | VGRGGGYFDY the result was 110 µM (1 of 3 replicates).
With GFTFDDYAMH | GISWNSGSIGYLDSWK | VGRGGGYFDI the result was nd (0 of 3 replicates).
With GFTFDHYHMH | GISWNSGSIGYADSVK | VGRGGGYFYY the result was 190 µM (1 of 3 replicates).
With GFTFDDYAMH | GISWKSGSIGYHDSVK | VGRGCGYFDY the result was nd (0 of 3 replicates).
With GFTFDDYAMH | GISWNSGSIWYLDSVK | VGRWGGYFDY the result was 850 µM (1 of 3 replicates).

Continued, with the values leading:

nd (0 of 3 replicates) for NFTFDDYAMH | GISWNKGSIGYADSVK | VGRGGGYKDY.
87 µM (2 of 3 replicates) for GFTFDDYAMH | GISENSSSIGYADSVK | VGRGGGRFDY.
nd (0 of 3 replicates) for GFTFDDYAMH | FISWNLGEIGYADSVK | VGRGGGYFDY.
30 nM (3 of 3 replicates) for GFTFNDYAMH | GISWNSGSIGYRDSVK | VGRGGNYFDY.
18 µM (3 of 3 replicates) for GFTFDDYATH | GISPNSGSIGYADSVK | VGRGGGYFDW.
nd (0 of 3 replicates) for GFTFDDYAMH | GCSWNSGSVGHADSVK | VGRGGGYFDY.
190 µM (1 of 3 replicates) for GFTFDDYAMH | GISWNSGSEGYLDSVK | VGTGGGYFDY.
19 µM (1 of 3 replicates) for GFTFDDYAMH | GISWNSGVILYAHSVK | VGRGGGYFDY.
nd (0 of 3 replicates) for GFTFDDYAMH | GISWNSGSIGWADVVK | VGRGGLYFDY.
8.1 µM (1 of 3 replicates) for GFTFDDSPMH | GISWNSGIIGYADSVK | VGRGGGYFDY.
nd (0 of 3 replicates) for GFTFDDYAMH | GISWNSGMIGYADSVK | VGPGGGYWDY.
nd (0 of 3 replicates) for GFTFDDYAMH | GISWNSGSIGYADSVG | VNRGGGYFRY.
nd (0 of 3 replicates) for GFTFDDEAMH | GISWNSGAIGYADSVK | HGRGGGYFDY.
nd (0 of 3 replicates) for GFTFDDYAMR | GISWNSGSKGYYDSVK | VGRGGGYFDY.
420 nM (1 of 3 replicates) for GKTFDDYAMW | GIDWNSGSIGYADSVK | VGRGGGYFDY.
6.8 µM (1 of 3 replicates) for GFTFDDYASH | GISWNYGSIGYADSVK | VGRGGGYFDY.

4 of these entries, quoted again:

| CDR-H1 | CDR-H2 | CDR-H3 | Kd | seen in |
|---|---|---|---|---|
| GFTFDDYAMH | GISWNSGSIPYADSVK | VMRHGGYFDY | 800 µM | 2/3 |
| GFTFDDYAMH | GISWSSGSLGYADSVK | VGRGGRYFDY | 20 µM | 1/3 |
| GFTFDDYAMH | GISENSSSIGYADSVK | VGRGGGRFDY | 87 µM | 2/3 |
| GFTFDDYFMH | GISWNSGSIGYADSVK | VGRGGQYFDQ | nd | 0/3 |

As a blank, each scFv also met three strains without target: over library AAYL51, 21% of these pairings were detected, typically at 34 µM and seldom below 1.8 µM.